# Test results from US8637554B2, “Methods for treating thyroid cancer” (The Trustees of the University of Pennsylvania, priority 2008, dated 2014).
# Test system: metastatic papillary thyroid carcinoma (mPTC)
# Experiment: Response by CT and PET scan in two patients with metastatic papillary thyroid carcinoma on sorafenib
# Format: in vivo, human
# Procedure: Patient 1: A person palpated a right-sided neck mass in August 2004. The patient underwent total thyroidectomy with lymph node dissection and pathology confirmed mPTC in one of eight lymph nodes. They were treated with ^131I and placed on thyroid hormone replacement. In August 2005, an enlarged lymph node was palpated in their neck.
# Treatment began on Apr. 18, 2006. Toxicity was assessed at every four weeks and response to treatment was assessed using serial CT and PET scans.
# Patient 2: A person presented with a sore throat in March 2002. Their physician noted only right sided cervical lymphadenopathy. […] Thyroidectomy and right neck lymph node dissection removed a 2.5 cm tall-cell PTC with 12 of 49 lymph nodes containing mPTC.
# PET scans were obtained on a dedicated whole-body PET scanner (C-PET, Phillips). At FDG injection, patients had fasted for 6 hours and blood glucose levels were less than 150 mg/dL. Image acquisition started 60 min following intravenous administration of FDG at a dose of 1.85 MBq/kg (0.05 mCi/kg) body weight. A transmission scan was obtained for attenuation correction.
smiles,measurement,setting,value
CNC(=O)c1cc(Oc2ccc(NC(=O)Nc3ccc(Cl)c(C(F)(F)F)c3)cc2)ccn1 [sorafenib],PET metabolic activity,"Patient 1, three and seven weeks after starting treatment",marked decrease in metabolic activity
same,Size of largest target lesion,"Patient 2, after 12 weeks, from 3.6 cm",1.3 cm
